Bioassay records: PubChem BioAssay, National Center for Advancing Translational Sciences (NCATS)
Epigenetic derep: epigenetic control regulation, reporter derepression; Potency, µM (highest dose often 53.9 µM), for the others: at the top dose GFP activation, hits mostly activators; murine LDR cells, GFP reporter derepression, 30 h; 280,000 tested, 0.2% active; further: % of control where 0% means no effect; nearly all actives have a fitted effect of over 60% in size
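Reporter derepression read as number of fluorescent GFP-positive objects, 20-120 um in size, counted by laser-scanning cytometer. Mouse LDR line with an epigenetically silenced CMV-GFP locus; compound incubation 30 h, 37 C.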
Rango release inh: inhibition of RanGTP-driven Rango-importin beta dissociation. O95149+P62826. Biochemical FRET Rango-importin beta, RanGTP-induced dissociation. Potency, µM (top dose mostly 46.1 µM), for inactives: at the top dose activity change, negative = inhibition. 340,000 tested, 0.071% active; calls by dose curve; further: % of control where 0% means no effect; nearly all actives have a fitted effect of over 45% in size
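Compounds sat 5 min at room temperature with 0.1 uM Rango biosensor plus 0.25 uM importin beta, then FRET pre-read. RanGTP-RCC1 (0.6 uM Ran, 2mM GTP, 0.2 uM RCC1) added for 45 min, and the CFP/YFP post-read measured blocked complex dissociation.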
Vif-A3F inh: inhibitors of Vif-A3F interaction. HeLa A3F-eYFP + Vif (tagged APOBEC3F with the HIV-1 protein that degrades it), YFP fluorescence increase. Potency, µM (titrated, usually from 46.1 µM), inactives show at the highest dose activity, negative = active. 390,000 tested, 0.2% active. AID 602313; further: % of control where 0% means no effect; nearly all actives have a fitted effect of over 65% in size
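HeLa cells stably expressing Vif plus C-terminally eYFP-tagged A3F were seeded, incubated overnight at 37 deg C, dosed with compound, incubated overnight again at 37 deg C. Yellow fluorescence (Ex 488/Em 500-530) reported blocked Vif-mediated A3F-eYFP degradation.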
Vif-A3G inh: Vif-A3G binding inhibition. 410,000 tested, 0.076% active. HeLa A3G-eYFP + Vif (tagged APOBEC3G with the HIV-1 protein that degrades it), YFP fluorescence, overnight. Potency, µM (series often up to 46.1 µM), without a hit: at the highest dose activity, negative = active, actives largely listed as inhibitors. Q9HC16; further: on the % scale 0 is the no-effect control and ±100 the full control effect; nearly all actives have a fitted effect of over 60% in size
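Read-out is eYFP fluorescence (Ex 488/Em 500-530) from Vif-expressing HeLa A3G-eYFP cells; more signal means A3G escaped Vif-mediated degradation. Cells plated overnight, compound pinned in, incubated overnight at 37 deg C.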
Rango-impB inh: Rango-importin beta binding inhibition; Q14974; Rango CFP/YFP FRET sensor + importin beta, 45 min; Potency, µM (top dose mostly 92.2 µM), inactives show top-dose inhibition of complex formation; 340,000 tested, 0.031% active; AID 540263; calls by dose curve;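 further: 0% = DMSO wells and 100% = buffer wells lacking importin beta; nearly all actives have a fitted effect of over 15% in size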
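FRET biosensor (snurportin 1 IBB flanked by EYFP and cerulean), 50 nM, with compound 5 min, then 0.125 microM importin beta in PBS, 1 mM DTT, 0.02% Tween-20, 0.1% BSA. CFP/YFP ratio read after 45 min at room temperature; pre-read flags interference.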
* marks the source's active call; other numbers are inactive results; ? = inconclusive; · = no result given; ! = repeats disagree; [ ] = remark or other dose. In the library only some 0.42% were active in any assay of this set; here they are far more common. Unless noted, the call rests on the fitted dose curve; in most records, active means well fitted curve in the direction sought with a large enough effect; inconclusive means small, poorly fitted or top-dose-only effect, or another doubt; inactive means no such curve, though single readings can be large; an effect the other way counts as inactive or inconclusive. Potency means the concentration at half of the fitted maximal effect.

Every second line gives: Rango release inh	Rango-impB inh	Vif-A3F inh	Epigenetic derep	Vif-A3G inh
> Cc1cccn2c(=O)c3cc(C#N)c(=NC(=O)c4ccncc4)n(CCCOC(C)C)c3nc12
→ ?	?	-3.0%	3.1%	-1.4%
> CCN(CC)c1ccc(NS(=O)(=O)c2cc(-c3onc(C)c3C)ccc2OC)c(C)c1
→ ·	·	-7.5%	-2.1%	-7.6%
> Cn1cccc1/C=C1\CC(C(C)(C)C)C/C(=C\c2cccn2C)C1=O (stereo not given)
→ ?	?	?	2.82µM*	7.94µM*
> CN1C2CCC1/C(=C/c1cccn1C)C(=O)/C2=C\c1cccn1C
→ ?	?	22.4µM*	-3.0%	?
> Cc1ccc(/C=c2\s/c(=C(/C#N)C(=O)N3CCCC3)n(Cc3ccco3)c2=O)s1
→ 8.2µM*	?	-8.8%	?	0.5%
> CCCCCCCCCCCCCCCC[n+]1cccc(C(=O)N(CC)CC)c1
→ ?	73.1µM*!	-2.7%	1.0%	?
> CCc1ccc(Nc2nnc(-c3cc4cc(OC)ccc4oc3=O)s2)cc1
→ ·	·	0.3%	15.8µM*	2.2%
> CCCCN1C(=O)c2cccc3cc(O)cc(c23)C1=O
→ ?	?	1.26µM*	·	-11.8%
> CN(C)CCN(C(=O)/C=C/c1cccs1)c1nc2c(F)cc(F)cc2s1
→ 0.3%	0.4%	11.2µM*	1.1%	-17.9%
> COc1cccc2sc(N(CCN(C)C)C(=O)/C=C/c3cccs3)nc12
→ 9.7%	-3.4%	-5.3%	?	-15.3%
> CN(C)CCCN(C(=O)/C=C/c1cccs1)c1nc2ccc(F)cc2s1
→ 16.6%	15.2%	11.2µM*	2.9%	?
> N#Cc1nc(N2CCCCC2)nc(N(c2ccccc2)c2ccccc2)n1
→ ·	·	·	·	0.6%
> COc1ccc(C2=CC(c3ccc(N(C)C)cc3)n3nnnc3N2)cc1 (stereo not given)
→ ·	·	11.2µM*	2.2%	?
> COc1cccc(C2=CC(c3ccccc3)n3nnnc3N2)c1 (stereo not given)
→ ?	?	-0.5%	0.0%	?
> COc1cccc(C2=CC(c3ccc(N(C)C)cc3)n3nnnc3N2)c1 (stereo not given)
→ ?	?	31.6µM*	0.0%	?
> O=C(C[n+]1cccc2cccc(O)c21)c1ccc(F)cc1
→ ·	·	·	·	-4.9%
> Cc1ccc(SCC(c2ccccc2)N2CCN(CC(C)C)CCC2=O)cc1 (stereo not given)
→ ·	·	·	·	2.1%
> COc1ccc2oc(=O)c(-c3nc4ccc(C)cc4[nH]3)cc2c1
→ ·	·	?	11.2µM*	?
> CC(C)(C)n1ncc2c(=O)n(Cc3cccc(OC(F)F)c3)cnc21
→ ·	·	·	·	1.9%
> CC1=CC(c2ccccc2)n2nc(N)nc2N1 (stereo not given)
→ ?	?	2.7%	·	1.5%
> COc1ccc(C2C=C(C)Nc3nc(SC)nn32)cc1 (stereo not given)
→ 18.4µM*	?	1.6%	-0.9%	-6.7%
> c1ccc2c(c1)Cc1cc3ccccc3nc1-2
→ 4.5%	-0.2%	10µM*	0.0%	?
> O=C1c2ccccc2-c2nnc(-c3ccc(O)cc3)cc21
→ -0.9%	-4.4%	1.6%	-2.0%	2.4%
> Cc1cc2ccccc2nc1-c1ccccc1F
→ 1.4%	-2.2%	0.8%	·	0.2%
> O=C1c2ccccc2-c2nc3ccccc3cc21
→ 1.3%	2.8%	2.82µM*	·	-7.9%
> Cc1ccc(C(=O)N/C(=C\c2ccc(-c3cc(Cl)ccc3Cl)o2)C(=O)NCc2cccnc2)cc1
→ 10.3µM*	?	-0.4%	3.1%	-1.8%
> O=C(NCc1cccnc1)/C(=C/c1ccc(-c2cccc(Cl)c2)o1)S(=O)(=O)c1ccccc1
→ -6.0%	1.3%	-4.2%	-1.2%	-22.1%
> Cc1ccnc2c(N)cccc12
→ ·	·	·	·	-0.7%
> CCCCCCCCCCCCCCCC[N+](C)(C)CCN(Cc1ccc(OC)cc1)c1ncccn1
→ 5.9%	65.1µM*	3.2%	1.1%[16.9 µM]	0.4%
> O=C(NCc1ccc(Cl)cc1)C(=O)NCC(c1ccco1)S(=O)(=O)c1cccs1 (stereo not given)
→ ·	·	-3.6%	0.7%	3.1%
> Cc1ccc(-c2ccc(/C=N/NC(N)=S)o2)cc1
→ 7.4%	-5.1%	5.62µM*	?	-19.5%

Compounds above with a carbonyl joined to an NH by a bond outside any ring, in the order listed:
Every second line gives: Rango release inh	Rango-impB inh	Vif-A3F inh	Epigenetic derep	Vif-A3G inh
> Cc1ccc(C(=O)N/C(=C\c2ccc(-c3cc(Cl)ccc3Cl)o2)C(=O)NCc2cccnc2)cc1
→ 10.3µM*	?	-0.4%	3.1%	-1.8%
> O=C(NCc1cccnc1)/C(=C/c1ccc(-c2cccc(Cl)c2)o1)S(=O)(=O)c1ccccc1
→ -6.0%	1.3%	-4.2%	-1.2%	-22.1%
> O=C(NCc1ccc(Cl)cc1)C(=O)NCC(c1ccco1)S(=O)(=O)c1cccs1 (stereo not given)
→ ·	·	-3.6%	0.7%	3.1%
